Test system: NMDA-induced currents in pyramidal cells of the medial prefrontal cortex
Assay: Facilitation of NMDA-induced currents in pyramidal cells of the medial prefrontal cortex in vitro (brain slices, voltage-clamp)
Assay type: cell-based, rat
Settings: bath application; holding potential −60 mV; FIG. 3

CN(C)CCC[C@@]1(c2ccc(F)cc2)OCc2cc(C#N)ccc21 [escitalopram, (S)-1-[3-(dimethylamino)propyl]-1-(4-fluorophenyl)-1,3-dihydro-5-isobenzofurancarbonitrile]
effect on NMDA-induced currents in pyramidal cells of the prefrontal cortex: facilitates the NMDA-induced currents to similar extent as the risperidone and reboxetine

From US20070259952A1, “USES OF ESCITALOPRAM” (H. LUNDBECK A/S, priority 2006, published 2007)
